This test addresses Collagenase 3 (Homo sapiens, UniProt P45452). The experiment in a line: Inhibition of human recombinant MMP13. The method in brief:
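Enzyme potency is expressed as IC50 in nM, reported as average ± SD.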

The structures appear in SMILES notation.

As to `CC#CCOc1ccc(S(=O)(=O)N2CCSC(C)(C)[C@@H]2C(=O)NO)cc1`, the IC50 stood at 2.4 nM.

Usually IC50 stands for the point on the concentration scale where inhibition reaches its midpoint.
